Measured values: patent publication US20090180958A1, “Diagnostic and therapeutic agents” (Karyon-CTT Ltd., priority 2005, published 2009)

Tests used:
[1] = test system: A549 tumors
[2] = test system: NCI-H520 tumors
[3] = 275 nmol i.v., 15 min

CH3C(O)-Ala-Arg-Arg-Pro-Lys-Leu-Asp-Gly-Ala-NHCH2CH2S-p-CH2CONH-benzyl-DTPA europium chelate [A48-Eu]
accumulation in tumors as compared to normal tissue ([1]; A549 tumors, 275 nmol i.v., 15 min): accumulated strongly and selectively
tumor-to-muscle ratio ([1]; A549 tumors, Eu content ratio): 15.7
Eu content ([1]; Tumour (A549), 275 nmol i.v. tail vein, 15 min circulation, perfused): 225 ± 28.6 ng/g
accumulation in tumors ([2]; NCI-H520 tumors, 275 nmol i.v., 15 min): significantly selective accumulation
Eu content ([2]; Tumour (NCI-H520), 275 nmol i.v. tail vein, 15 min circulation, perfused): 101 ± 18.1 ng/g
Eu content ([3]; Brain): 11.3 ± 0.25 ng/g
Eu content ([3]; Heart): 4.59 ± 1.38 ng/g
Eu content ([3]; Intestine): 20.7 ± 4.72 ng/g
Eu content ([3]; Kidney): 1072 ± 295 ng/g
Eu content ([3]; Liver): 144 ± 33.8 ng/g
Eu content ([3]; Lungs): 11.5 ± 4.80 ng/g
Eu content ([3]; Muscle): 14.3 ± 4.77 ng/g
Eu content ([3]; Ovaries): 30.2 ± 12.7 ng/g
Eu content ([3]; Spleen): 27.7 ± 22.9 ng/g

Like-named read-outs stand apart in the source and are kept apart here.
